Test: Population pharmacokinetic analysis
Format: in vivo, human
Settings: covariate test; ΔOFV > − 0.4, p > 0.1

influence of aging on FRator-oOH or CLator: did not significantly influence
SMILES: CC(C)c1c(C(=O)Nc2ccccc2)c(-c2ccccc2)c(-c2ccc(F)cc2)n1CC[C@@H](O)C[C@@H](O)CC(=O)O [atorvastatin]
